Assay results from US20070110715A1, “Treatment of alzheimer's disease” (Ares Trading S.A., priority 2003, published 2007).

Experiments:
early-onset AD patients [1] = experiment: Effect of IFN-β in combination with an AChEI in early-onset AD patients (Example 1); assay type: in vivo, human; settings: IFN-β plus ChEI
Description: The effect of IFN-β in combination with an AChEI on AD disease development is performed on 40 early-onset AD patients.
The clinical efficacy of IFN-β-1a (Rebif® 22 μg, tiw) in the treatment of AD is evaluated by measuring changes in neuropsyhological performance from baseline.
This 6-month, single-center, pivotal study is performed on 40 early-onset AD patients. Subjects are randomized into two groups: the first group (n=20) receiving Rebif® 22 μg tiw plus an acetylcholinesterase inhibitor (e.g., donepezil, rivastigmine, galantamine, etc.); the second group (n=20) receiving a placebo plus an acetylcholinesterase inhibitor. […]
The trial is designed as a pilot investigation of the clinical utility of Rebif® 22 μg tiw in combination with an acetylcholinesterase inhibitor in the treatment of AD; sample size was chosen based on feasibility for a single-site study. Continuous variables, including cognitive and behavioral scores, am analysed by measuring changes from baseline; analysis of variance is used to compare between-group differences. Side effects are analysed using descriptive statistics and non-parametric tests.
Outcome measures are assessed at baseline, week 12, and week 25 (study completion). […]

early-onset AD patients [2] = experiment: Effect of IFN-β in early-onset AD patients (Example 2, placebo-controlled clinical study); assay type: in vivo, human; settings: for effect on clinical severity / clinical signs of early-onset Alzheimer's disease: IFN-β administered alone or in combination with a cholinesterase inhibitor, early-onset AD patients
Description: The effect of IFN-β on AD disease development is performed on 40 early-onset AD patients.
The clinical efficacy of IFN-β-1a (Rebif® 22 μg, tiw) in the treatment of AD is determined by measuring differences in neuropsychological performance changes into two treatment arms (placebo and treatment) from baseline to 28-week treatment follow-up.
This 52-week, single-center, pivotal study is performed on 40 early-onset AD patients. Subjects are randomized into two groups: the first group (n=20) receiving Rebif® 22 μg tiw; the second group (n=20) receiving a placebo. The treatment period is ended after 28 weeks.
Forty patients are randomly assigned in a double-blind, controlled, parallel groups study comparing interferon beta treatment to placebo in patients with Alzheimer's dementia.
Based on the primary objectives of the study (calculated using MMSE and ADAS-cog scores to assess cognitive decline), the null hypothesis is that interferon beta will not stop the progressive decline in cognitive function typical of the natural history of Alzheimer's dementia. In other words, after 12 months of treatment, the MMSE and ADAS-cog scores of patients randomized to receive interferon beta therapy will be similar to those of patients who receive placebo treatment.
For this protocol, patients with an MMSE score equal to 20±5 were enrolled. Sample analyses assumed a clinically relevant effect size coinciding with a standard deviation (SD) respective to mean MMSE and ADAS-cog scores in cohorts of patients enrolled in previous randomized clinical trials. MMSE is a scale with a range from 0 to 30 decreasing with cognitive impairment, abnormal under the value of 26/30 age and education adjusted. ADAS-cog is a test with a score from 0 to 70 that increase with the impairment of cognitive functions, abnormal up a value of 9.5/70. […]
With regards to the primary objective of the effect of interferon beta on cognitive decline evaluated using ADAS-cog, it has been reported in the literature that MMSE scores correspond with ADAS-cog scores (Doraiswamy P M, Bleper F, Kalser L, Krishnan K R, Reuning-Scherer J, Gulanski B. The Alzheimer's disease assessment scale: patterns and predictors of baseline cognitive performance in multicenter Alzheimer's disease trials. Neurology 1997;48:1511-1517). […]
Outcome measures are assessed at baseline, week 12, week 28, and 52 (study completion). […]

In the case of “IFN-β: Rebif® is recombinant human interferon (IFN)-beta 1a, produced from mammalian cell lines”, the “effect on therapeutic activity of cholinesterase inhibitors” value (early-onset AD patients [1]) is reported as “synergetically enhancing the therapeutic activity of cholinesterase inhibitors”, the “effect on clinical severity / clinical signs of early-onset Alzheimer's disease” value (early-onset AD patients [2]) is reported as “significantly reduces clinical signs of the disease” and the “effect on clinical severity / clinical signs of early-onset Alzheimer's disease” value (early-onset AD patients [2]; listed as interferon-β) is reported as “pronounced beneficial effect”. The “expected mean MMSE score” value (early-onset AD patients [2]; patients treated with interferon beta, if null hypothesis is false, SD=5, expected placebo score 15.2) was 20.2 and the “expected mean ADAS-cog score” value (early-onset AD patients [2]; patients treated with interferon beta, if null hypothesis is false, SD=10, placebo about 36.5) was 26.5.
